Experimental data reported in patent publication US5929226A, “Antisense oligonucleotide alkylphosphonothioates and arylphospohonothioates” (dated 1999).

Columns and labels:
[1] = Stability in animals (data not shown); details: result in words
[2] = system: snake venom phosphodiesterase; assay: Relative resistance to 3' exonucleolytic degradation by snake venom phosphodiesterase (hyperchromicity at A260); details: snake venom phosphodiesterase 1.5 milliunits, 37° C.

In the case of ACACCCAATTCTGAAAATGG, the stability in animals [1] is reported as “is not”, the t1/2 ([2]; pH 8.5) is reported as 44 s and the “% increase in hyperchromicity” value ([2]; pH 8.5, A260) is reported as 22.56%.
